# Measurements: patent US7727731B2, “Potent, selective and non toxic c-kit inhibitors” (AB Science, priority 2001, dated 2010)
# System: P815 (endogenous c-kit carrying the 814V mutation)
# Assay: Proliferation test, P815 cells
# Details: doses inferior to toxicity level (<10 μM)
substance,measurement,value
STI 571,"Effect on proliferation of cells carrying 814 mutation, P815",not the proliferation of cells carrying 814 mutation
